Protein sequences, listed by entry. Tags and fused reporters are not part of them.
UniProt P08485, whole entry: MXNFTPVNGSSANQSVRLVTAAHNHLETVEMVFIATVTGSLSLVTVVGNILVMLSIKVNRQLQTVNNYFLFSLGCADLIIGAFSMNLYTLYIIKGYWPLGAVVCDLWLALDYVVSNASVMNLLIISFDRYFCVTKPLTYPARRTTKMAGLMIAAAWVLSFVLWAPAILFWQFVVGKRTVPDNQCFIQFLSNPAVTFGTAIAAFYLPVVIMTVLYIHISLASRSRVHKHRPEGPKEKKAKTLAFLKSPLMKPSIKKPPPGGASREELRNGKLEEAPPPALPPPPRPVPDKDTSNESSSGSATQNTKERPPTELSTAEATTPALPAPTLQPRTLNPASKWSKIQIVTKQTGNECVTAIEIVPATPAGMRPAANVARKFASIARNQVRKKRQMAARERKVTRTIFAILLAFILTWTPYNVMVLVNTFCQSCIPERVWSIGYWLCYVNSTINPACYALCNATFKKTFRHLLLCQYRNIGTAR

In ChEMBL document CHEMBL4177610, “Discovery of a novel 2,4-dimethylquinoline-6-carboxamide M4 positive allosteric modulator (PAM) chemotype via scaffold hopping” (Bioorg Med Chem Lett, 2017):

Target: Muscarinic acetylcholine receptor M4 (Rattus norvegicus, UniProt P08485)
Experiment: Positive allosteric modulation of rat M4 receptor expressed in CHO cells co-expressing Gqi5 assessed as increase in acetylcholine-induced calcium mobilization
Format: functional, cell-based

EC50: 225 nM
Structure (SMILES): Cc1nnc2sc(C(=O)NCc3ccc(S(=O)(=O)C(F)(F)F)cc3)c(N)c2c1C
